Measured values: patent US20230357447A1 (JANUX THERAPEUTICS, published 2023)

Biological target: T1, CD28 antigen (biotinylated, captured on neutravidin coated plates) (UniProt P10747, in part, biotinylated (site not stated))
T1 construct: also called cognate antigen, CD28
Experiment: ELISA: biotinylated CD28 captured on neutravidin plate, antibody titrated, HRP secondary antibody

EC50: 1.95 nM
B1: anti-CD28 scFv (SEQ ID NO: 9) (scFv)
scFv: QVQLVQSGAEVKKPGASVKVSCKASGYTFTSYYIHWVRQAPGQGLEWIGSIYPGNVNTNYNEKFKDRATLTVDTSISTAYMELSRLRSDDTAVYFCTRSHYGLDWNFDVWGQGTTVTVSSGGGGSGGGGSGGGGSDIQMTQSPSSLSASVGDRVTITCHASQNIYVWLNWYQQKPGKAPKLLIYKASNLHTGVPSRFSGSGSGTDFTLTISSLQPEDFATYYCQQGQTYPYTFGGGTKVEIK
notes: also called Anti-CD28 scFv (VH-linker 1-VL)
